From paper PMC3716919, “Oxidative stress disruption of receptor-mediated calcium signaling mechanisms” (Journal of Biomedical Science, 2013)

Tested on: CHO-M3 cells
Experiment: Cell viability, MTS reduction assay

In the case of `CC(C)(C)OO` [tBHP, tert-butyl hydroperoxide], the “cytotoxicity (MTS reduction)” value (90 min exposure, concentrations up to 20 mM) is reported as “not observed” and the “lowest concentration with significant cytotoxicity” value (exposure extended for an additional hour (150 min), data not shown) is reported as 1 mM.
